Measured values reported in publication PMC12102759 (Protein Science : A Publication of the Protein Society, 2025).

The chains behind the UniProt entries cited, without tags or fusion partners. Residues count along the entry.
UniProt Q9Y490, 309-401: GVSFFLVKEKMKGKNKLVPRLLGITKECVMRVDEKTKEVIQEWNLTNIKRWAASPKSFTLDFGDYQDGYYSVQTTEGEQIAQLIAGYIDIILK

Molecular target: TLN1 PTB (Homo sapiens, UniProt Q9Y490)
Format: binding

| Substance | DMS-derived PSSM value of the single-substitution variant | DMS-derived PSSM value, averaged over the two overlapping peptides |
| --- | --- | --- |
| FPTDERSWVYSPLHYS T3G (FPGDERSWVYSPLHYS) | 0.01993 |  |
| TDERSWVYSPLHYSAQ S14D (TDERSWVYSPLHYDAQ) | 0.09191 |  |
| FPTDERSWVYSPLHYS S16L (FPTDERSWVYSPLHYL) | 0.02196 |  |
| TDERSWVYSPLHYS(averaged) Y13I (TDERSWVYSPLHIS) |  | 0.08264 |
| TDERSWVYSPLHYSAQ Y8A (TDERSWVASPLHYSAQ) | 0.01629 |  |
| TDERSWVYSPLHYSAQ R4S (TDESSWVYSPLHYSAQ) | 0.08737 |  |
| FPTDERSWVYSPLHYS S16A (FPTDERSWVYSPLHYA) | 0.1376 |  |
| TDERSWVYSPLHYS(averaged) R4E (TDEESWVYSPLHYS) |  | 0.01533 |
| TDERSWVYSPLHYS(averaged) Y13P (TDERSWVYSPLHPS) |  | 0.02082 |
| TDERSWVYSPLHYSAQ R4K (TDEKSWVYSPLHYSAQ) | 0.003744 |  |
| FPTDERSWVYSPLHYS Y10E (FPTDERSWVESPLHYS) | 0.001155 |  |
| FPTDERSWVYSPLHYS P12E (FPTDERSWVYSELHYS) | 0.02709 |  |
| TDERSWVYSPLHYS(averaged) S9T (TDERSWVYTPLHYS) |  | 0.03764 |
| FPTDERSWVYSPLHYS S16N (FPTDERSWVYSPLHYN) | 0.02533 |  |
| FPTDERSWVYSPLHYS Y15P (FPTDERSWVYSPLHPS) | 0.01992 |  |
| TDERSWVYSPLHYS(averaged) V7M (TDERSWMYSPLHYS) |  | 0.02199 |
| TDERSWVYSPLHYSAQ T1E (EDERSWVYSPLHYSAQ) | 0.1316 |  |
| FPTDERSWVYSPLHYS R6R | 0.01427 |  |
| TDERSWVYSPLHYS(averaged) S14T (TDERSWVYSPLHYT) |  | 0.1228 |
| FPTDERSWVYSPLHYS W8S (FPTDERSSVYSPLHYS) | 0 |  |
| FPTDERSWVYSPLHYS W8W | 0.5435 |  |
| FPTDERSWVYSPLHYS S16Q (FPTDERSWVYSPLHYQ) | 0.008877 |  |
| TDERSWVYSPLHYS(averaged) H12T (TDERSWVYSPLTYS) |  | 0.1476 |

| Substance | DMS-derived PSSM value of the single-substitution variant | DMS-derived PSSM value, averaged over the two overlapping peptides |
| --- | --- | --- |
| TDERSWVYSPLHYSAQ P10A (TDERSWVYSALHYSAQ) | 0.0572 |  |
| FPTDERSWVYSPLHYS L13W (FPTDERSWVYSPWHYS) | 0.3931 |  |
| TDERSWVYSPLHYS(averaged) T1Y (YDERSWVYSPLHYS) |  | 0.0823 |
| FPTDERSWVYSPLHYS H14G (FPTDERSWVYSPLGYS) | 0.03957 |  |
| FPTDERSWVYSPLHYS R6D (FPTDEDSWVYSPLHYS) | 0.04985 |  |
| FPTDERSWVYSPLHYS W8A (FPTDERSAVYSPLHYS) | 0.0437 |  |
| TDERSWVYSPLHYS(averaged) R4F (TDEFSWVYSPLHYS) |  | 0.01214 |
| FPTDERSWVYSPLHYS P2Q (FQTDERSWVYSPLHYS) | 0.02038 |  |
| FPTDERSWVYSPLHYS Y15L (FPTDERSWVYSPLHLS) | 0.004513 |  |
| TDERSWVYSPLHYSAQ D2I (TIERSWVYSPLHYSAQ) | 0.003613 |  |
| TDERSWVYSPLHYSAQ D2E (TEERSWVYSPLHYSAQ) | 0.04115 |  |
| TDERSWVYSPLHYS(averaged) P10H (TDERSWVYSHLHYS) |  | 0.04019 |
| FPTDERSWVYSPLHYS P12Q (FPTDERSWVYSQLHYS) | 0.1471 |  |
| TDERSWVYSPLHYSAQ D2D | 0.1736 |  |
| TDERSWVYSPLHYS(averaged) S9D (TDERSWVYDPLHYS) |  | 0.003142 |
| FPTDERSWVYSPLHYS T3D (FPDDERSWVYSPLHYS) | 0.01221 |  |
| TDERSWVYSPLHYSAQ Y13L (TDERSWVYSPLHLSAQ) | 0.03195 |  |
| TDERSWVYSPLHYS(averaged) S14I (TDERSWVYSPLHYI) |  | 0.0932 |
| FPTDERSWVYSPLHYS T3L (FPLDERSWVYSPLHYS) | 0.2378 |  |
| TDERSWVYSPLHYSAQ H12K (TDERSWVYSPLKYSAQ) | 0.007422 |  |
| TDERSWVYSPLHYS(averaged) Y8Y |  | 0.04173 |
| TDERSWVYSPLHYS(averaged) D2V (TVERSWVYSPLHYS) |  | 0.02758 |
| FPTDERSWVYSPLHYS Y10Q (FPTDERSWVQSPLHYS) | 0.06416 |  |

| Substance | DMS-derived PSSM value of the single-substitution variant | DMS-derived PSSM value, averaged over the two overlapping peptides |
| --- | --- | --- |
| TDERSWVYSPLHYS(averaged) D2W (TWERSWVYSPLHYS) |  | 0.02336 |
| FPTDERSWVYSPLHYS S16F (FPTDERSWVYSPLHYF) | 0.01755 |  |
| TDERSWVYSPLHYS(averaged) V7G (TDERSWGYSPLHYS) |  | 0.008985 |
| TDERSWVYSPLHYS(averaged) Y8G (TDERSWVGSPLHYS) |  | 0.005376 |
| FPTDERSWVYSPLHYS S16R (FPTDERSWVYSPLHYR) | 0.0204 |  |
| TDERSWVYSPLHYS(averaged) W6D (TDERSDVYSPLHYS) |  | 0 |
| FPTDERSWVYSPLHYS S11E (FPTDERSWVYEPLHYS) | 0 |  |
| TDERSWVYSPLHYS(averaged) W6E (TDERSEVYSPLHYS) |  | 0.002222 |
| FPTDERSWVYSPLHYS E5Y (FPTDYRSWVYSPLHYS) | 0.01982 |  |
| TDERSWVYSPLHYSAQ S5N (TDERNWVYSPLHYSAQ) | 0.003923 |  |
| TDERSWVYSPLHYS(averaged) S5S |  | 0.06997 |
| TDERSWVYSPLHYSAQ T1K (KDERSWVYSPLHYSAQ) | 0.0276 |  |
| TDERSWVYSPLHYSAQ D2F (TFERSWVYSPLHYSAQ) | 0.03606 |  |
| TDERSWVYSPLHYS(averaged) T1I (IDERSWVYSPLHYS) |  | 0.01704 |
| TDERSWVYSPLHYS(averaged) P10Q (TDERSWVYSQLHYS) |  | 0.08571 |
| TDERSWVYSPLHYS(averaged) V7N (TDERSWNYSPLHYS) |  | 0.3735 |
| FPTDERSWVYSPLHYS H14D (FPTDERSWVYSPLDYS) | 0.07099 |  |
| TDERSWVYSPLHYS(averaged) Y13W (TDERSWVYSPLHWS) |  | 0.05954 |
| FPTDERSWVYSPLHYS L13Y (FPTDERSWVYSPYHYS) | 0.09699 |  |
| TDERSWVYSPLHYS(averaged) T1N (NDERSWVYSPLHYS) |  | 0.01133 |
| TDERSWVYSPLHYSAQ P10M (TDERSWVYSMLHYSAQ) | 0.02991 |  |
| TDERSWVYSPLHYSAQ P10K (TDERSWVYSKLHYSAQ) | 0.1554 |  |
| FPTDERSWVYSPLHYS P2W (FWTDERSWVYSPLHYS) | 0.02832 |  |

| Substance | DMS-derived PSSM value of the single-substitution variant | DMS-derived PSSM value, averaged over the two overlapping peptides |
| --- | --- | --- |
| TDERSWVYSPLHYS(averaged) R4D (TDEDSWVYSPLHYS) |  | 0.1366 |
| TDERSWVYSPLHYS(averaged) Y8F (TDERSWVFSPLHYS) |  | 0.05465 |
| TDERSWVYSPLHYSAQ Y8Q (TDERSWVQSPLHYSAQ) | 0.01205 |  |
| FPTDERSWVYSPLHYS Y15M (FPTDERSWVYSPLHMS) | 0.01681 |  |
| TDERSWVYSPLHYS(averaged) S14K (TDERSWVYSPLHYK) |  | 0.005913 |
| FPTDERSWVYSPLHYS W8R (FPTDERSRVYSPLHYS) | 0 |  |
| TDERSWVYSPLHYS(averaged) L11I (TDERSWVYSPIHYS) |  | 0.1133 |
| TDERSWVYSPLHYSAQ E3H (TDHRSWVYSPLHYSAQ) | 0.0111 |  |
| FPTDERSWVYSPLHYS E5P (FPTDPRSWVYSPLHYS) | 0.1802 |  |
| FPTDERSWVYSPLHYS V9T (FPTDERSWTYSPLHYS) | 0.009005 |  |
| FPTDERSWVYSPLHYS E5M (FPTDMRSWVYSPLHYS) | 0.02876 |  |
| TDERSWVYSPLHYSAQ S5E (TDEREWVYSPLHYSAQ) | 0.07535 |  |
| TDERSWVYSPLHYS(averaged) D2T (TTERSWVYSPLHYS) |  | 0.03 |
| TDERSWVYSPLHYS(averaged) S9H (TDERSWVYHPLHYS) |  | 0.006259 |
| TDERSWVYSPLHYSAQ Y13S (TDERSWVYSPLHSSAQ) | 0.138 |  |
| TDERSWVYSPLHYSAQ S9Q (TDERSWVYQPLHYSAQ) | 0.0041 |  |
| FPTDERSWVYSPLHYS R6N (FPTDENSWVYSPLHYS) | 0.009144 |  |
| FPTDERSWVYSPLHYS R6W (FPTDEWSWVYSPLHYS) | 0.02732 |  |
| TDERSWVYSPLHYS(averaged) T1L (LDERSWVYSPLHYS) |  | 0.1268 |
| FPTDERSWVYSPLHYS S11G (FPTDERSWVYGPLHYS) | 0 |  |
| FPTDERSWVYSPLHYS L13G (FPTDERSWVYSPGHYS) | 0.02955 |  |
